Source: US20110207796A1, “ALPHA-SYNUCLEIN KINASE” (Elan Pharma International Limited, priority 2008, published 2011)

Sequences of proteins named here, by UniProt entry; tags and fusion partners are left off. A change or cut given only in a name is not applied to a line headed by its entry.
UniProt Q9NYY3: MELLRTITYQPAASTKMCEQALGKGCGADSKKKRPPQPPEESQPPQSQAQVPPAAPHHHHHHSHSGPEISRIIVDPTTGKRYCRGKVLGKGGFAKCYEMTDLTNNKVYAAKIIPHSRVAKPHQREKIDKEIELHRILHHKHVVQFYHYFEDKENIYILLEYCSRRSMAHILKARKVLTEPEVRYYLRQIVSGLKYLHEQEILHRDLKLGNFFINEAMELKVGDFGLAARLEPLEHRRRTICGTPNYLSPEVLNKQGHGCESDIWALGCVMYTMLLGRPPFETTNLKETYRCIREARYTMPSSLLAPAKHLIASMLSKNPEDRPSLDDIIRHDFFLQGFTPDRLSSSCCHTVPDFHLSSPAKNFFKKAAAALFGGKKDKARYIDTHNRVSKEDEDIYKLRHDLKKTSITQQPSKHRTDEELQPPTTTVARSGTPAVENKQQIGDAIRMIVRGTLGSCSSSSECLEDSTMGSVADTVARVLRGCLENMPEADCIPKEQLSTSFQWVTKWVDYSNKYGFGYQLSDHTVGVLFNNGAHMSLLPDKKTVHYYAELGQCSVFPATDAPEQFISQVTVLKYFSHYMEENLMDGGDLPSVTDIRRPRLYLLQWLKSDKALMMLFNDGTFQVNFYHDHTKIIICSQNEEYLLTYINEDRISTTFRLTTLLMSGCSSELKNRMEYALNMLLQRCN
UniProt Q9H4B4: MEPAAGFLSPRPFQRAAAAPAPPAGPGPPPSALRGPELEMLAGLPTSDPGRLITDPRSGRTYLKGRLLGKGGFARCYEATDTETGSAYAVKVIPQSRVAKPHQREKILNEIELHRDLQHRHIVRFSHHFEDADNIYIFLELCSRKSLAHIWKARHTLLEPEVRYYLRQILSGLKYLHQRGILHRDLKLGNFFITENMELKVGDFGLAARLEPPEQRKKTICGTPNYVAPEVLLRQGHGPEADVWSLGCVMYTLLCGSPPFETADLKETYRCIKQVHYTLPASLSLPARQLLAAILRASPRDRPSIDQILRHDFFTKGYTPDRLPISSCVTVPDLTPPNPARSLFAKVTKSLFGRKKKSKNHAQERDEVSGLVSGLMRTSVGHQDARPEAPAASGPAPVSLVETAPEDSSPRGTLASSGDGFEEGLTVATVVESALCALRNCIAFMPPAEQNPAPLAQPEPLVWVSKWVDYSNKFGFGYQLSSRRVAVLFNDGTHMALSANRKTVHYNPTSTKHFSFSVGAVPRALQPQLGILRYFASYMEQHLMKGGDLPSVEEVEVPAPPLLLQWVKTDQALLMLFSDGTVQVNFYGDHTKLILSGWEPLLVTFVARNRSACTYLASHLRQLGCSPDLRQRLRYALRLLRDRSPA

Experiments:
PLK2 [1] = target: T1, PLK2 (Homo sapiens, UniProt Q9NYY3); assay: HEK-293 cells overexpressing synuclein and PLK2, inhibition of synuclein phosphorylation; assay type: cell-based; design: expressed in transfected cells; host or cells: HEK-293
PLK3 = target: T2, PLK3 (Homo sapiens, UniProt Q9H4B4); assay: HEK-293 cells overexpressing synuclein and PLK3, inhibition of synuclein phosphorylation; assay type: cell-based; conditions: HEK-293, Table 22
T2 construct: expressed in transfected cells; host or cells: HEK-293

PLK2 [2] = target: T1, PLK2; assay: in vitro biochemical assay of PLK2-driven synuclein phosphorylation

CC[C@@H]1C(=O)N(C)c2cnc(Nc3ccc(C(=O)NC4CCN(C)CC4)cc3OC)nc2N1C1CCCC1 [BI 2536, 4-[[(7r)-8-cyclopentyl-7-ethyl-5,6,7,8-tetrahydro-5-methyl-6-oxo-2-pteridinyl]amino]-3-methoxy-n-(1-methyl-4-piperidinyl)-benzamide]
1: rank order of potency, Over-Expressed PLK2 (293) (PLK2 [1]; 293 cells, Table 19) | Rank Order of Potency Based on Percent Inhibition of Synuclein Phosphorylation, Synuclein + PLK2 (PLK2 [1]; HEK-293, Table 22) | Rank Order of Potency Based on Percent Inhibition of Synuclein Phosphorylation, Synuclein + PLK3 (PLK3) | rank order of potency, Straight Biochemical (PLK2 [2])
